System: human umbilical vein endothelial cells (HUVECs)
Conditions: 1 μM, Boyden chamber, vs control group; for cell migration effect (cell staining): FIG. 5A

**Q.** `C[C@H](CCC(=O)NCCS(=O)(=O)O)[C@H]1CC[C@H]2[C@@H]3[C@H](O)C[C@@H]4C[C@H](O)CC[C@]4(C)[C@H]3C[C@H](O)[C@]12C` [TauroCA, taurocholic acid] was tested. Which “cell migration effect (cell staining)” value did it give?
**A.** Its value is “significantly higher than that of the control group”.

**Q.** Which results are given for `C[C@H](CCC(=O)O)[C@H]1CC[C@H]2[C@@H]3[C@H](O)C[C@@H]4C[C@H](O)CC[C@]4(C)[C@H]3C[C@H](O)[C@]12C` [cholic acid]?
**A.** cell migration effect (cell staining): significantly higher than that of the control group; cell migration (cell counting, migration assay) (FIG. 5B): significantly increased

Source: patent publication US11185553B2, “Pharmaceutical composition for preventing or treating ischemic-reperfusion injury comprising bile acids” (priority 2016, dated 2021)
